# Binding of CDR-mutated scFvs to a peptide of the spike HR2 region

Data: MIT Lincoln Laboratory AlphaSeq set, Engelhart et al. 2022, doi:10.1038/s41597-022-01779-4, as distributed in FLAb.

Target peptide (SARS-CoV-2 spike, HR2 region): PDVDLGDISGINAS

Each scFv is VH, the linker GGGGSGGGGSGGGGS, VL, as in the parent Ab-95, and differs from it in the CDRs of the light chain only.
VH: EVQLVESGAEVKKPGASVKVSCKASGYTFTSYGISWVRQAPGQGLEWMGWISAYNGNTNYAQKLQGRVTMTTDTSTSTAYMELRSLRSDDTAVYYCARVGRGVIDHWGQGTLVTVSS
VL: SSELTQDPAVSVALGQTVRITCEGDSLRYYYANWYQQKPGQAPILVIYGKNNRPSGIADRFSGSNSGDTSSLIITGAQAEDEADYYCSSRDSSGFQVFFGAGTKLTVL

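The starting antibody came from a phage panning campaign against this peptide. AAYL52 was designed without a model: most single CDR substitutions and a random sample of double and triple ones. The scFvs were displayed on barcoded MATa yeast, the peptide on MATalpha yeast. The frequency of each diploid, read from paired DNA barcodes, reflects how well the two displayed proteins bind. Each replicate has its own calibration line, from reference interactions of the BCL2 family. Mating was done three times.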

The parent's light chain CDRs are EGDSLRYYYAN, GKNNRPS, SSRDSSGFQVF; each variant's own CDRs replace them letter for letter.
Affinities are written as log10 Kd with Kd in nM; a lower number is a better binder.
The mean shown is taken over the replicates in which the pair was detected.
"ND" marks a missing value. The strain was present, yet no cells mated with the target were sequenced in that replicate, which points to weak or no binding.
Nonspecific signal, from three strains lacking the peptide, appeared in 28% of pairings of library AAYL52, centred on 3.91 (5% of these signals below 2.90); values are not corrected for it. The control count says in how many pairings with the empty strains this scFv gave a signal, with their mean in brackets.
For reference, the parent read 2.31 as the reference entry and 2.25 as a member of this library.

{"CDR-L1": "EGDPLRYYYAN", "CDR-L2": "GKNNRPS", "CDR-L3": "SSRDWPGFQVF", "log10 Kd, replicates": "3.35 3.18 2.93", "mean, log10 nM": "3.15", "control signals": "2 of 9 (5.15)"}
{"CDR-L1": "EGDSLRYYYAR", "CDR-L2": "GYPNRPS", "CDR-L3": "SSRDSSGFQVF", "log10 Kd, replicates": "ND ND 4.37", "mean, log10 nM": "4.37", "control signals": "3 of 9 (3.99)"}
{"CDR-L1": "EGDSLRYYYAN", "CDR-L2": "GACNRPS", "CDR-L3": "SSRDSSGFVVF", "log10 Kd, replicates": "4.33 3.81 3.67", "mean, log10 nM": "3.94", "control signals": "3 of 9 (4.61)"}
{"CDR-L1": "EGDSLRYYYAN", "CDR-L2": "YKNNRPN", "CDR-L3": "SSRDSSGFFVF", "log10 Kd, replicates": "3.91 ND ND", "mean, log10 nM": "3.91", "control signals": "2 of 9 (3.49)"}
{"CDR-L1": "EGDSLRYRYAN", "CDR-L2": "GKNNRPS", "CDR-L3": "MSRDSSGSQVF", "log10 Kd, replicates": "1.37 1.70 1.10", "mean, log10 nM": "1.39", "control signals": "4 of 9 (3.58)"}
{"CDR-L1": "EGDSLRYYYVN", "CDR-L2": "GKNNRPS", "CDR-L3": "SSRDSSGFQRV", "log10 Kd, replicates": "3.11 2.48 2.64", "mean, log10 nM": "2.74", "control signals": "2 of 9 (3.92)"}
{"CDR-L1": "EGWSLRYYYAN", "CDR-L2": "GKNNRQS", "CDR-L3": "TSRDSSGFQVF", "log10 Kd, replicates": "3.14 4.18 3.76", "mean, log10 nM": "3.70", "control signals": "5 of 9 (3.42)"}
{"CDR-L1": "ENDQLRYYYAN", "CDR-L2": "GKNNRPS", "CDR-L3": "SSRDKSGFQVF", "log10 Kd, replicates": "ND 3.60 3.44", "mean, log10 nM": "3.52", "control signals": "2 of 9 (4.07)"}
{"CDR-L1": "EGMSLRYYYAN", "CDR-L2": "GWNNRPS", "CDR-L3": "SSRDYSGFQVF", "log10 Kd, replicates": "3.27 4.09 ND", "mean, log10 nM": "3.68", "control signals": "0 of 9"}
{"CDR-L1": "EGWSLRYYYAN", "CDR-L2": "GKNNRPS", "CDR-L3": "SCRDSSGFQVE", "log10 Kd, replicates": "3.44 3.47 3.99", "mean, log10 nM": "3.63", "control signals": "5 of 9 (3.62)"}
{"CDR-L1": "EGDSQRYYYAN", "CDR-L2": "GKNNRPS", "CDR-L3": "SSRDSGGFQLF", "log10 Kd, replicates": "4.26 3.30 3.44", "mean, log10 nM": "3.67", "control signals": "4 of 9 (4.16)"}
{"CDR-L1": "FGDSLRYYYAN", "CDR-L2": "GKKNAPS", "CDR-L3": "SSRDSSGFQVF", "log10 Kd, replicates": "ND 5.37 ND", "mean, log10 nM": "5.37", "control signals": "3 of 9 (3.96)"}
{"CDR-L1": "EGDSLRHYYAN", "CDR-L2": "GKNNRPS", "CDR-L3": "SPRDSSGFQVF", "log10 Kd, replicates": "3.37 3.06 2.59", "mean, log10 nM": "3.01", "control signals": "5 of 9 (4.10)"}
{"CDR-L1": "EGDSCRYYYTN", "CDR-L2": "GKNNRCS", "CDR-L3": "SSRDSSGFQVF", "log10 Kd, replicates": "4.50 3.24 3.06", "mean, log10 nM": "3.60", "control signals": "3 of 9 (3.25)"}
{"CDR-L1": "EGDSSCYYYAN", "CDR-L2": "GKNNRPS", "CDR-L3": "SSRHSSGFQVF", "log10 Kd, replicates": "3.09 4.90 ND", "mean, log10 nM": "4.00", "control signals": "2 of 9 (2.76)"}
{"CDR-L1": "EGDSLRYYLAN", "CDR-L2": "GKDNRPS", "CDR-L3": "SSRDSCGFQVF", "log10 Kd, replicates": "2.37 2.73 2.17", "mean, log10 nM": "2.42", "control signals": "0 of 9"}
{"CDR-L1": "EGDSKRYPYAN", "CDR-L2": "GKNNRPS", "CDR-L3": "SSRDGSGFQVF", "log10 Kd, replicates": "2.40 2.64 2.75", "mean, log10 nM": "2.60", "control signals": "2 of 9 (3.93)"}
{"CDR-L1": "TGDSLRYSYAV", "CDR-L2": "GKNNRPS", "CDR-L3": "SSRDSSGFQVF", "log10 Kd, replicates": "2.61 2.90 2.14", "mean, log10 nM": "2.55", "control signals": "3 of 9 (3.75)"}
{"CDR-L1": "EGLSLRYYVAN", "CDR-L2": "GKNNRPS", "CDR-L3": "SSRDSSEFQVF", "log10 Kd, replicates": "ND ND ND", "mean, log10 nM": "ND", "control signals": "1 of 9 (3.89)"}
{"CDR-L1": "EGCSLRYYYLN", "CDR-L2": "GKNNRPS", "CDR-L3": "SSRDSSRFQVF", "log10 Kd, replicates": "ND 4.15 3.16", "mean, log10 nM": "3.65", "control signals": "4 of 9 (4.06)"}
{"CDR-L1": "EGDVLRYYSAN", "CDR-L2": "GKNNRPS", "CDR-L3": "SSRDSSGFQAF", "log10 Kd, replicates": "4.50 2.94 3.19", "mean, log10 nM": "3.54", "control signals": "3 of 9 (4.22)"}
{"CDR-L1": "EGDSLRRYYAN", "CDR-L2": "GKNNPPS", "CDR-L3": "SSRASSGFQVF", "log10 Kd, replicates": "4.91 3.14 ND", "mean, log10 nM": "4.02", "control signals": "1 of 9 (3.40)"}
{"CDR-L1": "EYDSLRYYYAN", "CDR-L2": "FKNNRPS", "CDR-L3": "SSRDSSHFQVF", "log10 Kd, replicates": "ND ND ND", "mean, log10 nM": "ND", "control signals": "1 of 9 (4.06)"}
{"CDR-L1": "EGDSLRYYYAN", "CDR-L2": "GKNNRPD", "CDR-L3": "SSIDSSGFQNF", "log10 Kd, replicates": "2.35 2.28 1.76", "mean, log10 nM": "2.13", "control signals": "4 of 9 (4.07)"}
{"CDR-L1": "EGDSLRYYYIN", "CDR-L2": "PKNNRPS", "CDR-L3": "SSRDSSGFQVN", "log10 Kd, replicates": "ND ND 3.39", "mean, log10 nM": "3.39", "control signals": "1 of 9 (4.34)"}
{"CDR-L1": "EGKSLRYYYAN", "CDR-L2": "GHNNRPS", "CDR-L3": "SSDDSSGFQVF", "log10 Kd, replicates": "2.98 2.54 3.76", "mean, log10 nM": "3.09", "control signals": "3 of 9 (3.06)"}
{"CDR-L1": "EGDSLRYYYAN", "CDR-L2": "GKLYRPS", "CDR-L3": "SSRDSSGFLVF", "log10 Kd, replicates": "3.89 3.81 4.01", "mean, log10 nM": "3.90", "control signals": "5 of 9 (3.93)"}
{"CDR-L1": "EGDSLRYYYAN", "CDR-L2": "GKNNRFS", "CDR-L3": "SSRDSSGFQEC", "log10 Kd, replicates": "4.44 ND ND", "mean, log10 nM": "4.44", "control signals": "1 of 9 (4.02)"}

Repeated from above, the 5 best binders with a signal in all replicates:

CDR-L1	CDR-L2	CDR-L3	log10 Kd, replicates	mean, log10 nM	control signals
EGDSLRYRYAN	GKNNRPS	MSRDSSGSQVF	1.37 1.70 1.10	1.39	4 of 9 (3.58)
EGDSLRYYYAN	GKNNRPD	SSIDSSGFQNF	2.35 2.28 1.76	2.13	4 of 9 (4.07)
EGDSLRYYLAN	GKDNRPS	SSRDSCGFQVF	2.37 2.73 2.17	2.42	0 of 9
TGDSLRYSYAV	GKNNRPS	SSRDSSGFQVF	2.61 2.90 2.14	2.55	3 of 9 (3.75)
EGDSKRYPYAN	GKNNRPS	SSRDGSGFQVF	2.40 2.64 2.75	2.60	2 of 9 (3.93)